{
  "source": "patent US20260027128A1",
  "about": "(priority 2016, published 2026)",
  "key": {"male Sprague-Dawley rats [1]": {"test_system": "male Sprague-Dawley rats", "settings": "inhalation"}, "male Sprague-Dawley rats [2]": {"test_system": "male Sprague-Dawley rats", "test": "Time to tail flick after inhaled remimazolam and/or remifentanil (Example 2)", "settings": "inhaled remimazolam 10 or 25 mg/mL in combination with 250 mcg/mL remifentanil, P<0.0001"}},
  "note": "Read-outs that look alike come from different tables or passages of the source.",
  "data": [
    {"compound": "COC(=O)CC[C@@H]1N=C(c2ccccn2)c2cc(Br)ccc2-n2c(C)cnc21", "note": "[Remimazolam, methyl 3-[(4S)-8-bromo-1-methyl-6-(pyridin-2-yl)-4H-imidazo[1,2-a][1,4]benzodiazepin-4-yl]propanoate]", "values": [
      {"measurement": "Effect on analgesia when administered in conjunction with remifentanil", "setting": "male Sprague-Dawley rats [1]", "result": "synergistic effect on analgesia"},
      {"measurement": "Pulmonary mechanics", "setting": "C57B1/6 mice; mice acutely exposed to combination of remifentanil (200 mcg/mL) and remimazolam (20 mg/mL)", "result": "no alterations to pulmonary mechanics"},
      {"measurement": "Pulmonary mechanics", "setting": "C57B1/6 mice; mice sub-acutely exposed (3 treatments every other day) to combination of remifentanil and remimazolam 20 mg/mL", "result": "no alterations to pulmonary mechanics"},
      {"measurement": "Response to methacholine challenge vs vehicle exposed mice", "setting": "C57B1/6 mice; mice sub-acutely exposed to remifentanil + remimazolam, P<0.0007, decrease attributed to remifentanil", "result": "diminished changes in lung resistance"},
      {"measurement": "Pulmonary mechanics", "setting": "C57B1/6 mice; mice, acute inhalation of remimazolam up to 20 mg/mL", "result": "did not alter the pulmonary mechanics"},
      {"measurement": "Adverse pulmonary events", "setting": "C57B1/6 mice; mice, inhaled remimazolam alone or in combination with remifentanil", "result": "does not cause lung irritation, bronchospasm, or other adverse pulmonary events"},
      {"measurement": "Time to tail flick vs baseline and saline control", "setting": "male Sprague-Dawley rats [2]", "result": "significant difference in time to tail flick"}
    ]}
  ]
}
